The values below are quoted from earlier work in patent US20240115569A1, “METHODS FOR BLOCKING HER2 SIGNALING FOR TREATING PULMONARY FIBROSIS” (CEDARS-SINAI MEDICAL CENTER, priority 2021, published 2024).

Chains of the proteins cited; added tags and fusions are not shown. Residues count along the entry.
UniProt P08637, 17-254: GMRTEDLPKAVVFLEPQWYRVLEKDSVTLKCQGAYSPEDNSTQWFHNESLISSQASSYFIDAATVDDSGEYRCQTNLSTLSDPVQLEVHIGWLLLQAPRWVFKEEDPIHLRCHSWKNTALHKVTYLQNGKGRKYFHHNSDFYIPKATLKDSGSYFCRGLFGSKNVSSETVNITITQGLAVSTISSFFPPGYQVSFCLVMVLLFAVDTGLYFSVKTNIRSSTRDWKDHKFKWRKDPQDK

For one data set, the target named is CD16A FcγRIIIA (Homo sapiens, UniProt P08637). Particulars: in comparison to trastuzumab; cited from earlier work.
A further data set deals with T1, CD32B FcγRIIB (Homo sapiens, UniProt P31994).
T1 sequence (P31994 43-310): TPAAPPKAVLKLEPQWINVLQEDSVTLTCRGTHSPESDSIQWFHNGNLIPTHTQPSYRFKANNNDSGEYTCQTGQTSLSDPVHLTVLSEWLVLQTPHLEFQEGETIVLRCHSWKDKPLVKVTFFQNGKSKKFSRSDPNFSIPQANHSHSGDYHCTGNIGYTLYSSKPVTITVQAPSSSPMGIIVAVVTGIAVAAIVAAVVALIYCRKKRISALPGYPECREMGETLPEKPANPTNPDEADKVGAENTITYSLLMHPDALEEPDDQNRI
Particulars: in comparison to trastuzumab; cited from earlier work.

Consider “margetuximab-cmkb: monoclonal antibody derivative of trastuzumab that binds to the same epitope of the HER2 receptor, engineered IgG1 Fc region”, for which the “greater affinity for stimulatory CD16A FcγRIIIA” value with CD16A FcγRIIIA is on record as “up to 6.6 ×”. The “less affinity for inhibitory CD32B FcγRIIB” value with CD32B FcγRIIB is on record as 8.4 ×.
